Broadly, the inhibition is the percentage by which the read-out fell short of the control.

Protein sequences, listed by entry. Tags and fused reporters are not part of them.
UniProt O14727, whole entry: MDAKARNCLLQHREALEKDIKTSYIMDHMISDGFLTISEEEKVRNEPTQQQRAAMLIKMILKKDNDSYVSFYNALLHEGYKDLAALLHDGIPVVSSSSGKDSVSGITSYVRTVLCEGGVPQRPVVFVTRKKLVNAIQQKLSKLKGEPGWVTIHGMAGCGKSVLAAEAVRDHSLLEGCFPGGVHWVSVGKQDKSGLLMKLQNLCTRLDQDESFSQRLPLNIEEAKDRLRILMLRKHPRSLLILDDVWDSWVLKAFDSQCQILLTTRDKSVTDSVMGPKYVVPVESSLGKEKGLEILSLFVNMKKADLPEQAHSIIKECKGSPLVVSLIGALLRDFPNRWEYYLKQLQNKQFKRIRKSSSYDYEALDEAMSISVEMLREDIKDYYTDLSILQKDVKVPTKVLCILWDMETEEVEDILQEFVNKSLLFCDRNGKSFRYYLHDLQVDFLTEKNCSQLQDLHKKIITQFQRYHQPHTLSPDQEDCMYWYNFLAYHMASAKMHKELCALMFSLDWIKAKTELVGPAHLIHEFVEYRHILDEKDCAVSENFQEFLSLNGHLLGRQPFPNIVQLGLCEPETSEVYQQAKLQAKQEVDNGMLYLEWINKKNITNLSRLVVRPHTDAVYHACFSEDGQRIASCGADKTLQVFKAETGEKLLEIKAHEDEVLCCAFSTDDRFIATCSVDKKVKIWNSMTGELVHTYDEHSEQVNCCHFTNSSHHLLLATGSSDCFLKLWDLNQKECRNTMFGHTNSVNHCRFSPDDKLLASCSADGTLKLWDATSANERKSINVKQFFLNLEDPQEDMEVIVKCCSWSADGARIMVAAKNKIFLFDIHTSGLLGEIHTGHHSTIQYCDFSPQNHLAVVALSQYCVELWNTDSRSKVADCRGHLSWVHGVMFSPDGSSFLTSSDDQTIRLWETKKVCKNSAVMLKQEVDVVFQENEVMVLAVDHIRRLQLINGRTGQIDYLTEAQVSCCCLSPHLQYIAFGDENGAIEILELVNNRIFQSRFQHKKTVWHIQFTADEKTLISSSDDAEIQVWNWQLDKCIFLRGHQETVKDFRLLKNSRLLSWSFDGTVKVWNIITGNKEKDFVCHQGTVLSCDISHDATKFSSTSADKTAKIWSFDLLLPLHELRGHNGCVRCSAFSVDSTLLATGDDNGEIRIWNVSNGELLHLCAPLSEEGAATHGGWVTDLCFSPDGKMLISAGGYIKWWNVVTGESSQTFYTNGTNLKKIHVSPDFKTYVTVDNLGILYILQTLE

This is a selection; strong and weak results do not stand in their true shares. Active and inactive are the calls of the source. The calls were made as follows: active = inhibition of at least 40% at 20 µM; inactive = the rest.

The assay deals with Apoptotic protease-activating factor 1 (Homo sapiens) (UniProt O14727). The experiment in a line: blockers of Apaf-1-driven caspase-3 activation – biochemical, DEVD-Rh110 fluorescence, uHTS, primary screen (AID 489030).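 Also: plate controls were DMSO wells for no effect and DEVD-CHO caspase inhibitor wells for full effect.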 The following applies: reconstituted apoptosome caspase-3 activity, at 20 µM, stronger effect = higher value.
Take `CCC(=O)N(c1ccccc1)C1(COC)CCN(CCn2nnn(CC)c2=O)CC1`: the inhibition was inactive: 3.16%. Under `CCC(=O)N(c1ccccc1)C1(COC)CCN(CCc2cccs2)CC1` stands inactive: 11.6%.

Source of the values: PubChem BioAssay AID489030 (Sanford-Burnham Center for Chemical Genomics, 2010).
